Results on 16 compounds are retold here after patent US9079891B2, “Compounds that modulate intracellular calcium” (CALCIMEDICA, INC., priority 2010, dated 2015).

Sequences of proteins named here, by UniProt entry; tags and fusion partners are left off.
UniProt Q96D31, whole entry: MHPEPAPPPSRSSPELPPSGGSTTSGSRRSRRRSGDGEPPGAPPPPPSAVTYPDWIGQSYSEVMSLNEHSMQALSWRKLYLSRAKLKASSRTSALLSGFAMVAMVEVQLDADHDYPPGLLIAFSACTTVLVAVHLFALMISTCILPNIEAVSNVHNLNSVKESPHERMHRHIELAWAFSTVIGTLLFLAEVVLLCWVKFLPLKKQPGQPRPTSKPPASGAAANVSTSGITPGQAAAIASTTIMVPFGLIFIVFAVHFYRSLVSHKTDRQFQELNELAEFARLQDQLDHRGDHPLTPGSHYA

The subject of experiment [1] is RBL-2H3 cells. The experiment in a line: Fluorescence-based assay of store-operated calcium entry in RBL-2H3 cells (FLIPR, thapsigargin). The settings on record: read-out: FLIPR_CRAC: 9 pt CRC - Fluo4_TG-D: RBL-2H3: IC50: Upslope 0-7 sec, Fluo-4. How it is done: B. Fluorescence-Based Assay of Store-Operated Calcium Entry in RBL-2H3 Cells.
RBL-2H3 cells are obtained from ATCC and maintained in complete medium with 10% FBS at 37° C./6% CO2.
The day prior to performing the assay, RBL-2H3 cells are plated in 50 μl of complete medium in a 384 well plate. Cells are grown at 37° C./6% CO2 overnight and grow to 50-60% confluence by the next day. On the assay day, 1.5 μM Fluo-4-AM dye (Invitrogen) in complete medium is added and incubated for 1 hour at RT. Cells are washed twice in Ca^2+-free HBSS buffer and 35 μl Ca^2+-free HBSS buffer is added to each well. 10 μl of a test compound prepared in a Ca^2+-free HBSS solution at 4.5× of the desired concentration is added to a well and incubated for 5 minutes at RT. 10 μl of thapsigargin prepared in a Ca^2+-free HBSS solution at 5.5× of the desired concentration (5.5 uM) is added to each well and incubated for an additional 25 minutes. The initial baseline fluorescence signal is measured with a FLIPR^384 (Molecular Devices) plate reader. 5 μl of 12× calcium in HBSS (12 mM) is added and changes in cellular fluorescence are measured with the FLIPR^384 plate reader. In each well, the change in the fluorescent signal as a function of time due to calcium entry into the cell is determined by calculating the difference between the fluorescent signal measured 7 seconds after calcium addition and the initial baseline fluorescence signal at time zero (t=0). This parameter is designated Upslope. The IC50 value is calculated as the concentration at which 50% of the Upslope is inhibited.

In experiment [2] the target is recombinant human STIM1 and Orai1 (Homo sapiens, UniProt Q96D31). The experiment in a line: Fluorescence-based assay of store-operated calcium entry in Orai1/STIM1 stable cells (FLIPR). Conditions: read-out: FLIPR_CRAC: 9 point CRC: O1S1_JR251: IC50: Peak_over_Basal; HEK-293 cells stably expressing human Orai1/STIM1; Fluo-4; Peak-Basal signal. How it is done:
A. Fluorescence-Based Assay of Store-Operated Calcium Entry in Orai1/Stim1 Stable Cells.
Cells stably expressing recombinant human STIM1 and Orai1 are generated by transfecting a human Orai1 expression plasmid (pcDNA3.1-Orai1-cmyc) into HEK-293 cells stably overexpressing human STIM1 (Roos et al. 2005 JCB 169(3): 435-445). Colonies of cells stably expressing both STIM1 and Orai1 proteins are selected and then subcloned by limiting dilution. Cells were cultured at 37° C./6% CO2 in complete medium with 10% FBS and appropriate selection markers.
The day prior to performing the assay Orai1/STIM1 stable cells are plated in 50 μL of complete medium at 90-95% confluence in a 384 well plate. Cells are grown at 37° C./6% CO2 overnight. […] The initial baseline fluorescence signal is then measured with a FLIPR^384 (Molecular Devices) plate reader. Calcium entry is initiated by adding 5 μl of 10×CaCl2 (10 mM) in HBSS, and changes in cellular fluorescence are measured with the FLIPR^384 plate reader. In each well, the magnitude of the fluorescence signal as a result of calcium entry into the cell is determined by calculating the difference between the peak fluorescence signal measured after calcium addition and the initial baseline fluorescence signal (designated Peak-Basal). […]

Structures are written as SMILES. Bounds are passed on as bounds.

For orientation: IC50 means the midpoint of a concentration-inhibition curve. Turning to `Cn1nc(-c2ccco2)cc1-c1ccc(C(=O)Nc2ccncc2F)s1`, in experiment [1], the IC50 was under 600 nM.
Take `Cn1nc(-c2ccccc2)cc1-c1ccc(C(=O)Nc2c(F)cncc2F)s1`: the 50% inhibitory concentration (IC50) in experiment [1] and in experiment [2] was 600 to 1200 nM in each case.
Regarding `Cn1nc(-c2ccco2)cc1-c1ccc(C(=O)Nc2ncccc2F)s1`, the IC50 in experiment [1] was in the range of 600 to 1200 nM.
On to `Cn1nc(-c2ccco2)cc1-c1ccc(C(=O)Nc2ncc(Cl)cc2F)s1`, for which the IC50 in experiment [1] was under 600 nM.
Regarding `Cn1nc(-c2ccco2)cc1-c1ccc(C(=O)Nc2c(F)cncc2F)s1`, the IC50 in experiment [1] is under 600 nM.
The same measure, in the same setting: next, `Cn1nc(-c2nccs2)cc1-c1ccc(C(=O)Nc2ccccc2F)s1`: under 600 nM.
Same read-out and setting: then `Cn1nc(-c2nccs2)cc1-c1ccc(C(=O)Nc2ncc(Cl)cc2F)s1`, with under 600 nM; and `Cn1nc(-c2ccccc2F)cc1-c1ccc(C(=O)Nc2c(F)cncc2F)s1`, with under 600 nM.
As to `Cn1nc(C(F)(F)F)cc1-c1sc(C(=O)Nc2ccccc2F)cc1N`, the half-maximal inhibitory concentration (IC50) in experiment [1] is under 600 nM.
Still for that read-out and setting: then `Cn1nc(-c2ccccc2)cc1-c1ccc(C(=O)Nc2ccncc2F)s1`, with 600 to 1200 nM.
For the compound `Cn1nc(C(F)(F)F)cc1-c1sc(C(=O)Nc2ccccc2Cl)cc1N`, the IC50 in experiment [1] was under 600 nM.
Turning to `Cn1nc(-c2ccccc2F)cc1-c1ccc(C(=O)Nc2ncccc2F)s1`, the IC50 in experiment [1] is under 600 nM.
For the compound `Cn1nc(-c2ccccc2F)cc1-c1cnc(NC(=O)c2ccccc2F)s1`, the IC50 in experiment [2] fell in the range of 600 to 1200 nM.
Regarding `Cn1nc(-c2ccccc2)cc1-c1ccc(C(=O)Nc2ccccc2F)s1`, the IC50 in experiment [1] fell in the range of 600 to 1200 nM.
Take `Cn1nc(-c2ccccc2F)cc1-c1ccc(C(=O)Nc2ncc(Cl)cc2F)s1`: the IC50 in experiment [1] fell in the range of 600 to 1200 nM.
On to `Cn1nc(-c2nccs2)cc1-c1ccc(C(=O)Nc2ccncc2F)s1`, for which the IC50 in experiment [1] is under 600 nM.
